Experimental data published in US11173145B2, “Compounds useful as inhibitors of indoleamine 2,3-dioxygenase and/or tryptophan dioxygenase” (Board of Regents, The University of Texas System, priority 2017, dated 2021).

Sequences of proteins named here, by UniProt entry; tags and fusion partners are left off. A change or cut given only in a name is not applied to a line headed by its entry.
UniProt P28776: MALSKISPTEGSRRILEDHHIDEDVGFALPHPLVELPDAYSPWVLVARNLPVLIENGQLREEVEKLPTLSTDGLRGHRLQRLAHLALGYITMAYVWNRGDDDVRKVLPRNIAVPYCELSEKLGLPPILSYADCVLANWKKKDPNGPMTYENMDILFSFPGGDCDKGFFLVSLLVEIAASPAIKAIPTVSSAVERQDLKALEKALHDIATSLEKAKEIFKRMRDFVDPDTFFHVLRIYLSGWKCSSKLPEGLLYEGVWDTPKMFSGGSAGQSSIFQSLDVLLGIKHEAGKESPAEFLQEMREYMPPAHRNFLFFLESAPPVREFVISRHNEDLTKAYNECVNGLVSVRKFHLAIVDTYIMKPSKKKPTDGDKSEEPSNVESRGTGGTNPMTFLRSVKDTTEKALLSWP

Target: T1, mouse IDO1 (Mus musculus, UniProt P28776)
T1 construct: The murine PANC02 pancreatic ductal adenocarcinoma cell line was routinely maintained in DMEM media; endogenous in cells; host or cells: PANC02 murine pancreatic ductal adenocarcinoma cells, induced with mouse IFNgamma
Test: Mouse IDO1 cell-based assay (PANC02 cells, mouse IFNgamma-induced, N-formylkynurenine/L-tryptophan by RFMS)
Protocol: The murine PANC02 pancreatic ductal adenocarcinoma cell line was routinely maintained in DMEM media containing 10% FBS. Cells (3,000/well) were seeded onto a 384 well plate in 50 μl of media and incubated at 37° C., 5% CO2 overnight. Cell media was aspirated, fresh media containing 30 ng/mL mouse IFNgamma (Gibco Life Technologies, cat #PMC4031) was added, and cells were incubated in absence or presence of various concentrations of compounds (final 0.5% DMSO) for 48 hours at 37° C., 5% CO2. Aliquots of the cell conditioned media was removed from the cell plate, and mixed with equal volume of 200 mM ZnSO4 to precipitate media containing protein. Two volumes of acetonitrile were added by mixing, and samples were then centrifuged at 2250G for 20 minutes at 4° C. Aliquots of the supernatant were diluted 1:10 in 0.1% formic acid containing 3 μM of deuterated Tryptophan as an internal standard.
Samples were analyzed via RFMS to quantify N-Formyl Kynurenine (AUC) and L-tryptophan (AUC). A C18 cartridge was used with mobile phases of 0.1% Formic Acid and 80% ACN/0.1% Formic Acid under isocratic conditions. Dose-response curves were analyzed using IC50 regression curve fitting (GeneData Screener). […] Cell viability was also assessed using the Cell Titer Glo Kit (Promega) following manufacture recommendation.

With `CCC(NC(=O)c1ccc(Cl)cc1)[C@H]1[C@@H]2C[C@@H](n3cnc4c(F)cccc43)C[C@@H]21` (stereo partly drawn) [Compound 194, 4-chloro-N-(1-((1R,3s,5S,6r)-3-(4-fluoro-1H-benzo[d]imidazol-1-yl)bicyclo[3.1.0]hexan-6-yl)propyl)benzamide] the IC50 was less than 500 nM.
